Values quoted from earlier work, collected in US12565475B2, “Small molecule compound inhibiting signal transmission path of TLR7 and TLR9 and use thereof” (AJOU UNIVERSITY INDUSTRY-ACADEMIC COOPERATION FOUNDATION, priority 2019, dated 2026).

Chains of the proteins cited; added tags and fusions are not shown. Residues count along the entry.
UniProt Q9NR96, 26-1032 limits assumed: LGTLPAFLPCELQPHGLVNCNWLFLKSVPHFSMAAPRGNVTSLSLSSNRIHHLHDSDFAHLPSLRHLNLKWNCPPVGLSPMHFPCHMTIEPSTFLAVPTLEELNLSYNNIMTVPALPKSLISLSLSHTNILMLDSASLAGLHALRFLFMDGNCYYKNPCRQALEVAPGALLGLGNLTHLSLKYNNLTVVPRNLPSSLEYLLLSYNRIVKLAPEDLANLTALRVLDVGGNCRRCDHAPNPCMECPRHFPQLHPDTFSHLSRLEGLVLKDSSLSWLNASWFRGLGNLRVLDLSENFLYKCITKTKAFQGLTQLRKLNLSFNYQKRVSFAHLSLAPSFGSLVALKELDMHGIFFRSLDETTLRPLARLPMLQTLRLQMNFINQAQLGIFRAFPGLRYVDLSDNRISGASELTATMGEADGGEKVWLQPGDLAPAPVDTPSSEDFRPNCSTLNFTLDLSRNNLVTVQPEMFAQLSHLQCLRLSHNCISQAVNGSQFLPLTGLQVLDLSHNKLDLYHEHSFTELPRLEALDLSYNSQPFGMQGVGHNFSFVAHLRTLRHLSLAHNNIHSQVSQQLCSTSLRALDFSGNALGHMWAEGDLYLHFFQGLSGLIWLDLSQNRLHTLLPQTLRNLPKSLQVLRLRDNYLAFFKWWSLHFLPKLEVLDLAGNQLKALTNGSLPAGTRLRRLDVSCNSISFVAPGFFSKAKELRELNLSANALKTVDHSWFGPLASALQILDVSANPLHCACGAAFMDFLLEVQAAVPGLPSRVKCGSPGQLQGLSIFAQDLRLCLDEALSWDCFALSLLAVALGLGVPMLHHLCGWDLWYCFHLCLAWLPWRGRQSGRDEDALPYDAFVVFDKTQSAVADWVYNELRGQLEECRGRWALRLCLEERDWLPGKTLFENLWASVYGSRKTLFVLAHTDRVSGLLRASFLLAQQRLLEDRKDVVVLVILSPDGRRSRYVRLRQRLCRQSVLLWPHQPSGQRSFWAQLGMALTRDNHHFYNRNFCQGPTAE

Target: TLR9 (Homo sapiens, UniProt Q9NR96)
Conditions: read-out: Activity (μM), IC50; Target TLR9; values from cited literature/patent; cited from earlier work

COc1cc2nc(-c3ccccc3)nc(N3CCN(CCN4CCCC4)CC3)c2cc1OC
IC50: 0.0534 µM
